Our source for the half-life values is patent US20230365568A1, “PLK1 POLO BOX DOMAIN INHIBITORS AND METHOD OF TREATING CANCER” (The United States of America,as represented by the …, priority 2020, published 2023).

The nature of this series: in vivo. The settings on record: male, C57BL/6, mouse, serum, ip, 20 mg/kg.

The structures appear in SMILES notation.

Broadly, the half-life is the time needed for the level to fall by half in the phase considered. Regarding `CCCn1c(=O)c2cccc(F)c2n2c(SC)nnc12` [compound 145, 9-fluoro-1-(methylthio)-4-propyl-[1,2,4]triazolo[4,3-a]quinazolin-5(4H)-one], the half-life amounted to 51.3 ± 11.2 min.
